The text below walks through data of patent US5559213A, “Polyethylene-protein conjugates” (Hoffmann-La Roche Inc., priority 1995, dated 1996).

This data set relates to CTLL cell. The data set is described as follows: CTLL cell proliferation assay (specific activity of rIL-2). In kind it is cell-based. How it is done:
Pegylated rIL-2 was purified from the reaction mixture as described by Katre et al. [Proc. Nat. Acad. Sci., USA, 84:1483, (1987)] using hydrophic exchange chromatography (Bio-Rad; Biogel-phenyl 5-PW). A linear gradient with-decreasing salt from 1.53 to 0.0M (NH4)2 SO4 in 50 mM sodium phosphate pH 7.0 in 30 minutes was used to separate PEG-modified and unmodified rIL-2. Aliquots of the fractions were evaluated by SDS-PAGE and pooled fractions were assayed to determine its specific activity in a CTLL cell proliferation assay by the method described by Gillis et al. [J. Immunology 120:2027, (1978)]. Protein concentrations were determined spectrophotometrically at 280 nm using an extinction coefficient of 0.667 for rIL-2.The-specific activity of the rIL-2 isolated proteins is expressed as units/mg protein and the results are summarized in Table III.

On to “rIL-2: Recombinant Interleukin-2, unmodified; apparent molecular weight 15 kD by SDS-PAGE”, for which the “specific activity” value is 2.0 × 10^7 units/mg (Example 3, Table III: rIL-2 conjugated to PEG with reagent of Example 1, label = apparent molecular weight (kD)) and 2×10^7 units/mg (Example 13: rIL-2 pegylated with reagent of Example 11 (SRU 111.7)).
